Paper PMC5908295 (Oncotarget, 2018)

Legend:
[1] = system: MV-4-11 (FLT3-ITD+) cells; assay: Western blot of FLT3/PIM downstream signaling; type: cell-based; conditions: MV-4-11, 4 hours
Method: (§1) Thereafter, we assessed the activities of FLT3-ITD – induced key pro-survival signaling pathways; STAT5, RAF/MEK/ERK and PI3K/AKT (Figure 3). […] Since the expression of a major anti-apoptotic BCL2 family member, MCL1, is regulated by translation, and PIM kinases regulate protein synthesis through 4EBP1, we also assessed the abundance of MCL1.
(§2) Cells were collected, washed twice with cold PBS, and lysed in RIPA buffer and kept on ice for 10 min. Tumor specimens from xenograft studies were homogenized in RIPA buffer using OMNI TH Tissue Homogenizer and kept on ice for 30 min. After incubation, cell and tumor lysates were centrifuged at 13,000×g at 4°C for 10 min and the supernatants were stored at −80°C until use. Protein concentration was measured using the Bradford method. For SDS-PAGE, 50 μg of protein in the Laemmli sample buffer was loaded onto 10% polyacrylamide gels and electrophoresed. Thereafter, proteins were transferred onto polyvinylidene fluoride (PVDF) membranes (Millipore). After blocking with 5% non-fat dry milk/TBS-T or 2% BSA/TBS-T, membranes were incubated with specific primary antibodies (listed in Supplementary Table 2) at 4 °C overnight. After extensive washing in PBS-T, membranes were incubated for 60 min with appropriate secondary peroxidase-conjugated IgG. The immunoreactive proteins were detected using an enhanced chemiluminescence (ECL) substrate (GE Healthcare) and visualized with Hyperfilm-ECL (GE Healthcare Biosciences).

[2] = system: MOLM-16 (FLT3-WT) cells; assay: Western blot of FLT3/PIM downstream signaling; type: cell-based; conditions: MOLM-16, 4 hours
Method: as §1, §2

[3] = Blood biochemistry in mice with MV-4-11 tumors; type: in vivo; conditions: treatment day 15
Text: All animals were handled in strict accordance with good animal practice as defined by the relevant national and local animal welfare bodies. SCID and SCID/beige C.B-17 mice were provided by Harlan Laboratories or Charles River Laboratories, and were maintained in pathogen free conditions. For the xenograft experiments, age-matched (9-11 weeks old) females were used. 5×10^6 of MV-4-11 or MOLM-16 cells were suspended in a mixture (1:1, v:v) of PBS with Matrigel (BD Biosciences,) and injected subcutaneously (sc), in a total volume of 100 μL, above the groin on the right hind limb. For MOLM-13 and KG-1 cells, a mixture (3:1, v:v) of PBS and Matrigel HC (BD Bioscience,) was used to inject 5 × 10^6 of cell per mouse subcutaneously (sc), in a total volume of 100 μL. When tumors reached 100-130 mm^3, mice were randomized into uniform groups (6-9 mice per group) and subsequently administered the compound. […] At the end of the experiment, mice were anesthetized with isofluran and blood samples for total cell counts and biochemistry were obtained by retro-orbital bleeding. […] 5×10^6 cells suspended in a mixture (3:1, v:v) of PBS and Matrigel were injected as described above. When the tumor volume reached ~120 mm^3, mice were randomized into uniform groups (5 mice per group) and the compound then administered. […] Tumor volume was monitored every second day and calculated using the formula: TV = (a^2×b)/2, where “a” is the short axis in millimeters, and “b” is the long axis in millimeters. Body weight was assessed every day.
Supplementary Table 9: Related to Figure 5C. […] The assessment of
was performed on treatment day 15.
AST – Aspartate aminotransferase, ALT – Alanine transaminase, ALP – alkaline phosphatase, UREA – blood urea nitrogen,
CREA – Creatinine, CK – Creatine kinase, TP- total protein; ALB – Albumin. […]

With CC(C)(C)c1cc(NC(=O)Nc2ccc(-c3cn4c(n3)sc3cc(OCCN5CCOCC5)ccc34)cc2)no1 [AC220] the MCL1 abundance [1] was “to a lesser extent”, the STAT5 signaling [1] was “completely blocked” and the “S6 (S235/236) phosphorylation” value [2] was “did not alter”.

Work on Nc1ccn([C@@H]2O[C@H](CO)[C@@H](O)[C@@H]2O)c(=O)n1 [Cytarabine] yielded a Na ([3]; Cytarabine 50 mg/kg) of 138.4 nmol/L.

For CC(C)n1c(C2CCNCC2)nc2c([N+](=O)[O-])c(Br)c(Br)cc21 [SEL24-B489, 5,6-dibromo-4-nitro-2-(piperidin-4-yl)-1-(propan-2-yl)-1H-1,3-benzodiazole], the ALT ([3]; SEL24-B489 25 mg/kg) was 70.5 U/L and the Na ([3]; SEL24-B489 25 mg/kg) was 138.2 nmol/L.
